Source: patent publication US12673036B2, “Method of using L-triiodothyronine (T3) for the treatment of tissue hypoxia and sepsis” (UNI-PHARMA KLEON TSETIS PHARMACEUTICAL LABORATORIES S.A., priority 2020, dated 2026)

System: critically ill patients with COVID-19 infection

## N[C@@H](Cc1cc(I)c(Oc2ccc(O)c(I)c2)c(I)c1)C(=O)O [T3, L-triiodothyronine]
48 hours
  right ventricular (RV) function: unexpectedly improved RV function
After T3 administration
  Tricuspid Annular Plane Systolic Excursion (TAPSE): upward trend
First 24 hours
  liver function by AST measurements: maintains good patient liver function
  renal function by creatinine levels: maintains normal renal function
First 48 hours
  left ventricular function (left ventricular ejection fraction): maintenance
  troponin levels compared to placebo: tends to decrease
First 48 hours, high dose i.v.
  T3 levels in blood: increased as expected
